# Measured affinities in a library of Ab-95 light chain variants

Data: MIT Lincoln Laboratory AlphaSeq set, Engelhart et al. 2022, doi:10.1038/s41597-022-01779-4, as distributed in FLAb.

Target: peptide PDVDLGDISGINAS, taken from heptad repeat 2 (HR2) of SARS-CoV-2 spike.

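The starting antibody came from a phage panning campaign against this peptide. Library AAYL52 holds single substitutions and randomly drawn double and triple substitutions in the CDRs. The scFvs were displayed on barcoded MATa yeast, the peptide on MATalpha yeast. After mating in shaken culture at 30 °C for 16 h, diploids were selected and their barcode pairs sequenced. The ratio of observed to expected reads was calibrated, replicate by replicate, on BCL2-family standards whose Kd was known from biolayer interferometry. Mating was done three times.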

Parent scFv Ab-95: VH joined to VL by three GGGGS repeats. Changes lie in the light chain CDRs alone.
VH: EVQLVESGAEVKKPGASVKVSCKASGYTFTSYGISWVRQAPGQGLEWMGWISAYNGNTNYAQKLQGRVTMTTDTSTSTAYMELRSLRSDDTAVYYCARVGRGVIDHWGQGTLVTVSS
VL: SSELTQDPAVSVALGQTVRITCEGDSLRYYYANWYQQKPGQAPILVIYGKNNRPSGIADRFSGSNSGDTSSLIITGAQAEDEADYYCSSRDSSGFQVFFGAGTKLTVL

Changes read parent residue, position, new residue, counted from the first residue of the VL shown.
All variants listed here change D25 of the VL, counted from its first residue.
Kd is apparent (estimated from mating counts) and averaged on the log scale over replicates with a signal. Smaller is tighter.
Where no diploid with the target was found in any replicate, the entry reads "nd": below detection, most likely a poor binder, though not proof of it.
Order: sorted from the lowest average up, undetected variants last.
For reference, the parent read 200 nM as the reference entry and 180 nM as a member of this library.
Background: pairings of library AAYL52 with three empty control strains gave a value in 28% of cases (median 8.2 µM, 5th percentile 800 nM). Values in that range, when seen in few replicates, are hard to tell from nonspecific mating. Also given: how often the same scFv was detected with the empty control strains.

- D25Y N52E D91G: 67 nM (3 of 3 replicates; controls 2 of 9)
- D25W S88M: 74 nM (3 of 3 replicates; controls 4 of 9)
- D25T P54A: 110 nM (3 of 3 replicates; controls 1 of 9)
- D25E Y29E S88W: 150 nM (3 of 3 replicates; controls 1 of 9)
- D25A S93M: 160 nM (3 of 3 replicates; controls 6 of 9)
- D25N K50T S92E: 160 nM (3 of 3 replicates; controls 1 of 9)
- D25R S26K Y29H: 200 nM (3 of 3 replicates; controls 4 of 9)
- D25Y Y30V K50Q: 220 nM (3 of 3 replicates; controls 4 of 9)
- D25R S92N F98H: 290 nM (3 of 3 replicates; controls 3 of 9)
- D25P R28S Q96R: 420 nM (3 of 3 replicates; controls 1 of 9)
- D25F Y30D S88K: 430 nM (3 of 3 replicates; controls 5 of 9)
- E23A D25Y Y31K: 500 nM (3 of 3 replicates; controls 6 of 9)
- D25I Y31E A32I: 550 nM (3 of 3 replicates; controls 2 of 9)
- D25E S89M Q96P: 590 nM (3 of 3 replicates; controls 2 of 9)
- D25S S55M S93F: 650 nM (3 of 3 replicates; controls 1 of 9)
- D25Q Y31G N52H: 720 nM (3 of 3 replicates; controls 3 of 9)
- D25K S92W Q96M: 740 nM (3 of 3 replicates; controls 3 of 9)
- D25L Q96G: 910 nM (3 of 3 replicates; controls 1 of 9)
- D25S F95I: 930 nM (3 of 3 replicates; controls 3 of 9)
- D25W N52Y: 1.3 µM (3 of 3 replicates; controls 2 of 9)
- D25H N51R S88H: 1.4 µM (1 of 3 replicates; controls 3 of 9)
- D25V S26G Q96L: 1.7 µM (3 of 3 replicates; controls 2 of 9)
- D25L K50G P54Y: 1.8 µM (3 of 3 replicates; controls 5 of 9)
- D25H N52K S93R: 1.9 µM (2 of 3 replicates; controls 1 of 9)
- D25A Y30K G94V: 2.1 µM (3 of 3 replicates; controls 2 of 9)
- D25P S93C: 2.6 µM (1 of 3 replicates; controls 1 of 9)
- D25M L27H F95E: 2.7 µM (3 of 3 replicates; controls 3 of 9)
- E23P D25Q S26Y: 3.3 µM (1 of 3 replicates; controls 0 of 9)
- D25K N52H F95H: 4.2 µM (2 of 3 replicates; controls 1 of 9)
- D25H Y30L R90N: 4.5 µM (2 of 3 replicates; controls 3 of 9)
- D25C R28I K50C: 5.1 µM (2 of 3 replicates; controls 4 of 9)
- D25C R28P Y30L: 5.2 µM (1 of 3 replicates; controls 3 of 9)
- D25C R28H S55M: 5.6 µM (2 of 3 replicates; controls 3 of 9)
- D25M N51D R90A: 5.8 µM (1 of 3 replicates; controls 5 of 9)
- D25T K50E F98E: 6.1 µM (2 of 3 replicates; controls 2 of 9)
- D25G N33M V97I: 10 µM (1 of 3 replicates; controls 2 of 9)
- D25L N52M R90E: 13 µM (2 of 3 replicates; controls 1 of 9)
- D25H F98V: 13 µM (2 of 3 replicates; controls 2 of 9)
- D25T N33H D91P: 16 µM (2 of 3 replicates; controls 3 of 9)
- D25T N33T G49F: 18 µM (3 of 3 replicates; controls 4 of 9)
- D25M N52R F98H: 30 µM (3 of 3 replicates; controls 2 of 9)
- D25F N51M R90M: 67 µM (1 of 3 replicates; controls 5 of 9)
- D25S S89D D91T: 80 µM (1 of 3 replicates; controls 1 of 9)
- D25I G49V S88Y: 100 µM (1 of 3 replicates; controls 2 of 9)
- D25T S26I S92H: nd (0 of 3 replicates; controls 0 of 9)